IC50 data for 1 substance are collected here from PMC6889161, “Inhibitory characteristics of flavonol-3-O-glycosides from Polygonum aviculare L. (common knotgrass) against porcine pancreatic lipase” (Scientific Reports, 2019).

The test has as its target T1, Lipase from porcine pancreas type II (pancreatic lipase) (Sus scrofa, UniProt P00591).
T1 construct: purchased Sigma-Aldrich Co. (St. Louis, MO, USA); host or cells: porcine pancreas (tissue preparation)
T1 sequence (P00591 1-450): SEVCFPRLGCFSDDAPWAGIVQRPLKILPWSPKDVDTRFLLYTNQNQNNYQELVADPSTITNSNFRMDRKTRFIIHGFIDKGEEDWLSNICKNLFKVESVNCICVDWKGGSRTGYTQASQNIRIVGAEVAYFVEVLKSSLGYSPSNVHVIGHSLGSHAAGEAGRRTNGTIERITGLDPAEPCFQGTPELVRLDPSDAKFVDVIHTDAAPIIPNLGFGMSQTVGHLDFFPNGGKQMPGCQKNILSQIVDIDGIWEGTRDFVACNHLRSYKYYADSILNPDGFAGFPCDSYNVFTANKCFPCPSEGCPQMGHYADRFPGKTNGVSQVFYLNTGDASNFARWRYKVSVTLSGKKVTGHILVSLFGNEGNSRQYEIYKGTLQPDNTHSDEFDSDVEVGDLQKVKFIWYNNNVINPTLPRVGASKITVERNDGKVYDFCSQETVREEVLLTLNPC
As to the kind of experiment: Pancreatic lipase inhibition assay (4-MUO substrate, fluorescence). The test is classed as biochemical. The conditions noted are these: from RRA of PL at various concentrations, nonlinear regression. The procedure: The PL assay using 4-MUO as a substrate was conducted as described previously with slight modification[28],[29]. Lipase from porcine pancreas type II (i.e., pancreatic lipase) was dissolved in 50 mM Tris-HCl buffer (pH 8.0) to give 10 mg/mL, and centrifuged at 5,000 g for 10 min to remove insoluble material before the enzyme assay. Then, 50 µL of 0.5 mM 4-MUO solution dissolved in the above buffer and 100 µL of the sample solution dissolved in methanol (i.e., the inhibitor solution) were mixed in 96-well microplate to form the reaction system. The enzymatic hydrolysis was initiated by adding 50 µL of the PL solution to the reaction system (final 250 units/mL) at 37 °C. […] The inhibitory activities against PL were calculated for comparison with each other, as follows:1 Inhibition(%)=A0−AS/A0×100 where A0 is the relative fluorescence unit after the reaction for 30 min in the absence of sample (i.e., only methanol) and AS is the fluorescence unit in the presence of sample.
To determine the IC50, the RRA of PL in the presence of the sample at various concentrations was evaluated. […]

Broadly, the IC50 is the concentration that gives 50% inhibition. Higher therefore signals weaker potency in that assay. Substance “myricetin-3-O-α-L-rhamnopyranoside [Myricitrin]” had an IC50 of 92.9 µM.
